Target: MASP-2 (CCP1-CCP2-SP) (Homo sapiens (Human), UniProt O00187)
Assay: Enzymatic Assay for MASP-2
Assay type: biochemical

Chains of the proteins cited; added tags and fusions are not shown. Residues count along the entry.
UniProt O00187, 445-686 limits assumed: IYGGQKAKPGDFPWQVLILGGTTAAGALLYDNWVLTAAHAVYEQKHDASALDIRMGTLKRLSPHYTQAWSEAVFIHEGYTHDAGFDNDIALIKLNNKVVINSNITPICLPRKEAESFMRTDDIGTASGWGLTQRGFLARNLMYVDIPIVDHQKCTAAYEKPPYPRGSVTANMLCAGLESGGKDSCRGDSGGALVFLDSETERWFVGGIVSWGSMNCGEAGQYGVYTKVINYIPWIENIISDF

| Structure (SMILES) | MASP-2 vs. thrombin selectivity |
| --- | --- |
| C[C@H](NC(=O)[C@@H](CCc1ccccc1)NCc1cc2ccccc2[nH]1)C(=O)NCc1ccc(C(=N)N)cc1 | −− (less than 1.0-fold) |
| C[C@H](NC(=O)[C@@H](CCc1ccccc1)NCc1ccc(F)cc1)C(=O)NCc1ccc(C(=N)N)cc1 | −− (less than 1.0-fold) |
